Data: patent publication US20140349862A1, “METHODS AND COMPOSITIONS FOR THERAPEUTIC DRUG MONITORING AND DOSING BY POINT OF CARE PHARMACOKINETIC PROFILING” (priority 2011, published 2014)
Like-named read-outs stand apart in the source and are kept apart here.

Conditions: human, in vivo

Substance | AUC variability as SD/Mean (im) [%] | AUC variability as SD/Mean (sc) [%]
Follegon: urinary follicle stimulating hormone preparation | 26.08 | 18.42
Metrodin: urinary follicle stimulating hormone preparation | 20.57 | 17.69
Normegon: FSH preparation given sc in the published FSH PK studies |  | 17.72
